{"sequences": {"note": "The chains behind the UniProt entries cited, without tags or fusion partners.", "UniProt P08913, whole entry": "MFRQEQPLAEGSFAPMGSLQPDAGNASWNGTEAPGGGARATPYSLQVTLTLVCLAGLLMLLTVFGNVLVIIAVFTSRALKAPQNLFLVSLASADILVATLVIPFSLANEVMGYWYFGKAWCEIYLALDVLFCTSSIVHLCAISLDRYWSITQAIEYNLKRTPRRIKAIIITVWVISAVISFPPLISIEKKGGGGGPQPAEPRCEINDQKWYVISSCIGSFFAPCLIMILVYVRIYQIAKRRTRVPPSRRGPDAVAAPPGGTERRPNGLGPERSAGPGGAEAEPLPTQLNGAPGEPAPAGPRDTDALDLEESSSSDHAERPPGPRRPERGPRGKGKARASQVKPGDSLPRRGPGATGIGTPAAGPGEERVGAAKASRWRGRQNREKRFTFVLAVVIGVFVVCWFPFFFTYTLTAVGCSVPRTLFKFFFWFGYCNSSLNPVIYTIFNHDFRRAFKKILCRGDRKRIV", "UniProt P18089, whole entry": "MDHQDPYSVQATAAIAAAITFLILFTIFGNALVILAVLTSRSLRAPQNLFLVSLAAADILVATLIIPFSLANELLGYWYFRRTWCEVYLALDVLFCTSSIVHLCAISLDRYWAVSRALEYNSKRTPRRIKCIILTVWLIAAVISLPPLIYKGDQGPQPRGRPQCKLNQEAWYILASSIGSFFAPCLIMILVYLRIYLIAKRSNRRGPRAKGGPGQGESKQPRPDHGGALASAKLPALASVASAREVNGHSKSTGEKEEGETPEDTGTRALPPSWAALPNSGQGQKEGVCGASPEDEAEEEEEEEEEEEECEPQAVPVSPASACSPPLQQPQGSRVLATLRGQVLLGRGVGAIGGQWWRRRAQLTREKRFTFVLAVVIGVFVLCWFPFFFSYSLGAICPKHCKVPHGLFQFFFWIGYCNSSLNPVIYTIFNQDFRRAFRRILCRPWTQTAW", "UniProt P18825, whole entry": "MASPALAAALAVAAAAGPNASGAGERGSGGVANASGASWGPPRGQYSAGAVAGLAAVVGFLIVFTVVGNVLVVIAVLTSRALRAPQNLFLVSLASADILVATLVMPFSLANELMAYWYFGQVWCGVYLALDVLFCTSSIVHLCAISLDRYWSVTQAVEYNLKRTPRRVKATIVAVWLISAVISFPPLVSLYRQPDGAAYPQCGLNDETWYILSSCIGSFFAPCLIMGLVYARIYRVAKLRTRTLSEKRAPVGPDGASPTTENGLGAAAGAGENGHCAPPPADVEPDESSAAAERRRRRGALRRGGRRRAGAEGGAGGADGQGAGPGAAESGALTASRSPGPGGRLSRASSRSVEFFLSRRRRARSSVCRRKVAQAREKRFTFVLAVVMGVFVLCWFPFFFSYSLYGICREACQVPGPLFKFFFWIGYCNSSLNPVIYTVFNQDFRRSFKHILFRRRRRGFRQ"}, "source": "patent US11185532B2", "about": "“Methods of treating pruritus” (Clexio Biosciences Ltd., priority 2019, dated 2021)", "key": {"Adrenergic α2A [1]": {"molecular_target": "T1, Adrenergic α2A (Homo sapiens, UniProt P08913)", "test": "cell-based"}, "Adrenergic α2B [2]": {"molecular_target": "T2, Adrenergic α2B (Homo sapiens, UniProt P18089)", "test": "cell-based"}, "Adrenergic α2C [3]": {"molecular_target": "T3, Adrenergic α2C (Homo sapiens, UniProt P18825)", "test": "cell-based"}, "Adrenergic α2A [4]": {"molecular_target": "T1, Adrenergic α2A", "test": "biochemical"}, "Adrenergic α2B [5]": {"molecular_target": "T2, Adrenergic α2B", "test": "biochemical"}, "Adrenergic α2C [6]": {"molecular_target": "T3, Adrenergic α2C", "test": "biochemical"}}, "data": [{"smiles": "Cc1cccc(Cc2c[nH]cn2)c1C", "note": "[detomidine]", "values": [{"measurement": "EC50", "setting": "Adrenergic α2A [1]", "result": 23.5, "unit": "nM"}, {"measurement": "EC50", "setting": "Adrenergic α2B [2]", "result": 36, "unit": "nM"}, {"measurement": "EC50", "setting": "Adrenergic α2C [3]", "result": 0.3, "unit": "nM"}, {"measurement": "inhibition at 10 µM", "setting": "Adrenergic α2A [4]", "result": 97, "unit": "%"}, {"measurement": "inhibition at 10 µM", "setting": "Adrenergic α2B [5]", "result": 104, "unit": "%"}, {"measurement": "inhibition at 10 µM", "setting": "Adrenergic α2C [6]", "result": 100, "unit": "%"}]}]}
